The test has as its target human mGluR2 (Homo sapiens (Human), UniProt Q14416). Description: FLIPR Ca2+ mobilization antagonist assay in CHO dhfr- cells expressing recombinant human mGluR2 and Gα16. In kind it is cell-based. Particulars: antagonist response after addition of 2,500 nM glutamate, Fluo-4 AM, FLIPR384.

Protein sequences, listed by entry. Tags and fused reporters are not part of them. Residues count along the entry.
UniProt Q14416, 19-872: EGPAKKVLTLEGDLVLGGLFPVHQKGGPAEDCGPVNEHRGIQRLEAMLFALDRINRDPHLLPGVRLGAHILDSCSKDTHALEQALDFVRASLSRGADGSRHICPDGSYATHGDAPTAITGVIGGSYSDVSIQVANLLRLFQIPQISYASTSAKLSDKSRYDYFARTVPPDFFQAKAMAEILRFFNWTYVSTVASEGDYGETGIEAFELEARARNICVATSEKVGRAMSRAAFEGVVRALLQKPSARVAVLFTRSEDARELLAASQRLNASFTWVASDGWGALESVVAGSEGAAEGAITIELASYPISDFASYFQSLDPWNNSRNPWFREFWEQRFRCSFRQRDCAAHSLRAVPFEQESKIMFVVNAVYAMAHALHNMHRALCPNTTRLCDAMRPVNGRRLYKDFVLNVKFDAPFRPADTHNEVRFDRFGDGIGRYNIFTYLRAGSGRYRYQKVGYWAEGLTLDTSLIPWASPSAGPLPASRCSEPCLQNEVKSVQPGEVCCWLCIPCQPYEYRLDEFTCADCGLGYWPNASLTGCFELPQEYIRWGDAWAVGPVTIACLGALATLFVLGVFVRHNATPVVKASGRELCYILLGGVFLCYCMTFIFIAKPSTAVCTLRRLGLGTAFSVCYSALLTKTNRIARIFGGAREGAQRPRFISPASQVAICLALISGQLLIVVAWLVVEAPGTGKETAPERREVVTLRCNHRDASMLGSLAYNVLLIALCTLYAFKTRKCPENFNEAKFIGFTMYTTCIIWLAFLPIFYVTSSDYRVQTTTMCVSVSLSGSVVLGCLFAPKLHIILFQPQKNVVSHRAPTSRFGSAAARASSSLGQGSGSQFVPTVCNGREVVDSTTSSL

One may read the IC50 as the concentration needed to halve the response being measured.

Regarding `NC(=O)c1cc(-c2ccc(F)cc2)c2ccc(CN3CCC4(CCOC4)CC3)cc2n1` [Example 4-52, 4-(4-fluorophenyl)-7(2-oxa-8-azaspiro[4.5]dec-8-ylmethyl)quinoline-2-carboxamide], the IC50 is 93 nM.

`COc1ccc(-c2cc(C(N)=O)nc3cc(CCc4cnc(C#N)nc4)ccc23)cc1` [Example 8-32, 7-[2-(2-cyanopyrimidin-5-yl)ethyl]-4-(4-methoxyphenyl) quinoline-2-carboxamide]: the IC50 was determined as 7 nM. As for `C[C@H]1CN(Cc2ccc3c(-c4ccc(F)cc4)cc(C(N)=O)nc3c2)CCO1` [Example 4-39, 4-(4-fluorophenyl)-7-{[(2S)-2-methylmorpholin-4-yl]methyl}quinoline-2-carboxamide], the figure is 42 nM; as for `C[C@@H]1CN(Cc2ccc3c(-c4cnn(C(F)F)c4)cc(C(N)=O)nc3c2)C[C@H](C(F)(F)F)O1` [Example 4-118, 4-[1-(difluoromethyl)-1H-pyrazol-4-yl]-7-{[(2R,6R)-2-methyl-6-(trifluoromethyl)morpholin-4-yl]methyl}quinoline-2-carboxamide], 13 nM. As for `Cn1cc(-c2cc(C(N)=O)nc3c(F)c(CN4CCO[C@H](C(F)(F)F)C4)ccc23)cn1` [Example 7-20-B, (S)-8-Fluoro-4-(1-methyl-1H-pyrazol-4-yl)-7-((2-(trifluoromethyl)morpholino)methyl)quinoline-2-carboxamide], the figure is 21 nM; as for `NC(=O)c1cc(C2=CCCCC2)c2ccc(CN3C(=O)CCC3=O)cc2n1` [Example 2-25, 4-cyclohex-1-en-1-yl-7-[(2,5-dioxopyrrolidin-1-yl)methyl]quinoline-2-carboxamide], 16 nM. As for `Cn1cc(-c2cc(C(N)=O)nc3cc(CN4CCOC(CC(F)(F)F)C4)ccc23)cn1` (stereo not drawn) [Example 4-98, 4-(1-methyl-1H-pyrazol-4-yl)-7-{[2-(2,2,2-trifluoroethyl)morph-olin-4-yl]methyl}quinoline-2-carboxamide], the figure is 52 nM. Turning to `COc1ncc(Cc2ccc3c(-c4ccc(F)cc4)cc(C(N)=O)nc3c2)cn1` [Example 6-11, 4-(4-fluorophenyl)-7-[(2-methoxypyrimidin-5-yl)methyl] quinoline-2-carboxamide], the IC50 turned out to be 14 nM. As for `Cn1cc(-c2cc(C(N)=O)nc3cc(CN4CCC(F)(F)CC4)ccc23)cn1` [Example 4-69, 7-[(4,4-difluoropiperidin-1-yl)methyl]-4-(1-methyl-1H-pyrazol-4-yl)quinoline-2-carboxamide], the figure is 46 nM; as for `CC(C)n1cc(-c2cc(C(N)=O)nc3cc(CN4CCOC(C(F)(F)F)C4)ccc23)cn1` (stereo not drawn) [Example 4-78, 4-[1-(1-methylethyl)-1H-pyrazol-4-yl]-7-{[2-(trifluoromethyl)morpholin-4-yl]methyl}quinoline-2-carboxamide], 81 nM. For `COc1ccc(-c2cc(C(N)=O)nc3cc(C(C)Cc4cccnc4)ccc23)cc1` (stereo not drawn) [Example 8-40, 4-(4-methoxyphenyl)-7-(1-methyl-2-pyridin-3-ylethyl)quinoline-2-carboxamide], the IC50 was found to be 10 nM. Regarding `Cn1cc(-c2cc(C(N)=O)nc3cc(Cc4cnc(C5CC5)nc4)ccc23)cn1` [Example 6-2, 7-((2-Cyclopropylpyrimidin-5-yl)methyl)-4-(1-methyl-1H-pyrazol-4-yl)quinoline-2-carboxamide], the 50% inhibitory concentration (IC50) was 21 nM.

Turning to `CC1CN(Cc2ccc3c(-c4ccc(F)cc4)cc(C(N)=O)nc3c2)CC(C)O1` (stereo not drawn) [Example 4-37, 7-[(2,6-dimethylmorpholin-4-yl)methyl]-4-(4-fluorophenyl)quino-line-2-carboxamide], the IC50 turned out to be 55 nM. As for `NC(=O)c1cc(-c2cn[nH]c2)c2ccc(CN3CCOC(C(F)(F)F)C3)cc2n1` (stereo not drawn) [Example 4-67, 4-(1H-pyrazol-4-yl)-7-{[2-(trifluoromethyl)morpholin-4-yl]methyl}quinoline-2-carboxamide], the figure is 1150 nM. Turning to `NC(=O)c1cc(-c2ccc(F)cc2)c2ccc(CN3CCNC(C(F)F)C3)cc2n1` (stereo not drawn) [Example 4-107, 7-{[3-(difluoromethyl)piperazin-1-yl]methyl}-4-(4-fluorophenyl)quino-line-2-carboxamide], the IC50 turned out to be 25 nM.

For the compound `CC1CCC(c2cc(C(N)=O)nc3cc(CN4C(=O)CCC4=O)ccc23)CC1` (stereo not drawn) [Example 2-28, 7-[(2,5-dioxopyrrolidin-1-yl)methyl]-4-(4-methylcyclohexyl)quin-oline-2-carboxamide], the IC50 was 17 nM.

Take `Cn1cc(-c2cc(C(N)=O)nc3cc(CN4C[C@H](C(F)(F)F)OC(C)(C)C4)ccc23)cn1` [Example 4-95, 7-{[(6R)-2,2-dimethyl-6-(trifluoromethyl)morpholin-4-yl]methyl}-4-(1-methyl-1H-pyrazol-4-yl)quinoline-2-carboxamide]: the IC50 is 11 nM.

As to `Cn1cc(-c2cc(C(N)=O)nc3cc(Cc4ccnc(C#N)c4)ccc23)cn1` [Example 6-20, 7-[(2-cyanopyridin-4-yl)methyl]-4-(1-methyl-1H-pyrazol-4-yl)quinoline-2-carboxamide], the IC50 was 15 nM. As for `CN1CCN(Cc2ccc3c(-c4ccc(F)cc4)cc(C(N)=O)nc3c2)C1=O` [Example 2-31, 4-(4-fluorophenyl)-7-[(3-methyl-2-oxoimidazolidin-1-yl)methyl]quinoline-2-carboxamide], the figure is 109 nM; as for `Cn1cc(-c2cc(C(N)=O)nc3cc(Cc4cnc(Cl)nc4)ccc23)cn1` [Example 6-15, 7-[(2-chloropyrimidin-5-yl)methyl]-4-(1-methyl-1H-pyrazol-4-yl)quinoline-2-carboxamide], 34 nM; as for `NC(=O)c1cc(-c2cnn(-c3ccccc3)c2)c2ccccc2n1` [Example 1-22, 4-(1-phenyl-1H-pyrazol-4-yl)quinoline-2-carboxamide], 505 nM. For the compound `N#Cc1cc(-c2ccc(F)cc2)c2ccc(CCc3cncnc3)cc2n1` [Example 8-13, 4-(4-fluorophenyl)-7-(2-pyrimidin-5-ylethyl)quinoline-2-carbonitrile], the IC50 was 170 nM.

`C[C@H]1CNC(C(F)(F)F)CN1Cc1ccc2c(-c3ccc(F)cc3)cc(C(N)=O)nc2c1` (single isomer, unassigned) [Example 4-22-B, 4-(4-Fluorophenyl)-7-(((2S)-2-methyl-5(R or S)-(trifluoromethyl)piperazin-1-yl)methyl)quinoline-2-carboxamide]: the IC50 stood at 11 nM.

Regarding `NC(=O)c1cc(-c2ccc(F)cc2)c2ccc(CN3CCC[C@H]3C(N)=O)cc2n1` [Example 4-24, 7-{[(2S)-2-carbamoylpyrrolidin-1-yl]methyl}-4-(4-fluorophenyl)quino-line-2-carboxamide], the IC50 came out at 78 nM. As for `COc1ccc(-c2cc(C(N)=O)nc3cc(C(C)Cc4cccnc4N)ccc23)c(F)c1` (stereo not drawn) [Example 8-39, 7-[2-(2-aminopyridin-3-yl)-1-methylethyl]-4-(2-fluoro-4-methoxyphenyl) quinoline-2-carboxamide], the figure is 14 nM; as for `CCC(O)(c1cn(Cc2ccc3c(-c4ccc(OC)c(C)c4)cc(C(N)=O)nc3c2)cn1)C(F)(F)F` (stereo not drawn) [Example 3-47, 7-({4-[1-hydroxy-1-(trifluoromethyl)propyl]-1H-imidazol-1-yl}methyl)-4-(4-methoxy-3-methylphenyl) quinoline-2-carboxamide], 67 nM. For `NC(=O)c1cc(-c2ccccc2Br)c2ccccc2n1` [Example 1-16, 4-(2-bromophenyl)quinoline-2-carboxamide] the value was 681 nM; for `COC(=O)[C@@H]1CCCN1Cc1ccc2c(-c3ccc(F)cc3)cc(C(N)=O)nc2c1` [Example 4-23, methyl 1-{[2-carbamoyl-4-(4-fluorophenyl)quino-lin-7-yl]methyl}-L-prolinate], 137 nM.

As to `COc1ccc(-c2cc(C(N)=O)nc3cc(C(O)Cc4ccc(Cl)nc4)ccc23)cc1` (stereo not drawn) [Example 8-28, 7-[2-(6-chloropyridin-3-yl)-1-hydroxyethyl]-4-(4-methoxyphenyl) quinoline-2-carboxamide], the IC50 is 6 nM.

For `Cn1cc(-c2cc(C(N)=O)nc3cc(Cc4cc(Cl)nc(C(F)(F)F)c4)ccc23)cn1` [Example 6-25, 7-{[2-chloro-6-(trifluoromethyl)pyridin-4-yl]methyl}-4-(1-methyl-1H-pyrazol-4-yl)quinoline-2-carboxamide], the IC50 was found to be 7 nM. Turning to `CCC(O)(c1cn(Cc2ccc3c(-c4ccc(F)cc4)cc(C(N)=O)nc3c2F)cn1)C(F)(F)F` (stereo not drawn) [Example 7-24, 8-fluoro-4-(4-fluorophenyl)-7-({4-[1-hydroxy-1-(trifluoromethyl)propyl]-1H-imidazol-1-yl}methyl)quinoline-2-carboxamide], the IC50 worked out at 17 nM. Turning to `Cc1c(-c2cc(C(N)=O)nc3cc(CN4C[C@@H](C)O[C@@H](C(F)(F)F)C4)ccc23)cnn1C` [Example 4-133, 4-(1,5-dimethyl-1H-pyrazol-4-yl)-7-{[(2R,6R)-2-methyl-6-(trifluoromethyl)morpholin-4-yl]methyl}quinoline-2-carboxamide], the IC50 stood at 272 nM. As for `CN1CC(=O)N(Cc2ccc3c(-c4ccc(F)cc4)cc(C#N)nc3c2)C1=O` [Example 2-19, 4-(4-fluorophenyl)-7-[(3-methyl-2,5-dioxoimidazolidin-1-yl)methyl]quinoline-2-carbonitrile], the figure is 588 nM; as for `NC(=O)c1cc(-c2ccc(F)cc2)c2ccc(CN3CCCCS3(=O)=O)cc2n1` [Example 2-33, 7-[(1,1-dioxido-1,2-thiazinan-2-yl)methyl]-4-(4-fluorophenyl)quinoline-2-carboxamide], 42 nM; as for `NC(=O)c1cc(-c2ccc(F)cc2)c2ccc(CN3CCC(N)CC3)cc2n1` [Example 4-50, 7-[(4-aminopiperidin-1-yl)methyl]-4-(4-fluorophenyl)quino-line-2-carboxamide], 381 nM.

With `COc1ccc(-c2cc(C(N)=O)nc3cc(C(C)Cc4ccc(CF)nc4)ccc23)c(F)c1` (stereo not drawn) [Example 8-48, 4-(2-fluoro-4-methoxyphenyl)-7-{2-[6-(fluoromethyl)pyridin-3-yl]-1-methylethyl} quinoline-2-carboxamide], the IC50 is 10 nM.

Values taken from patent US9278960B2, “Quinoline carboxamide and quinoline carbonitrile derivatives as mGluR2-negative allosteric modulators, compositions, and their use” (Merck Sharp & Dohme Corp., priority 2011, dated 2016).
